Screening results as filed in PubChem BioAssay.
A549 tox: counter-screen for Nrf2 inhibitors: cytotoxicity in A549 cells. Potency, µM (titrated, usually from 46 µM), actives largely listed as inhibitors. 390,000 compounds, 0.16% hits. AID 504648. A549 ARE-Fluc cells, CellTiter-Fluor viability, 18-24 h
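A549 ARE_Fluc cells in 5% FBS OPTI-MEM were exposed to compounds in concentration-response for 18-24 h at 37 deg C. Viability was read by CellTiter-Fluor fluorescence (Ex 405/Em 525) after 30 min, before the luciferase read.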
TSG101-PTAP inh: blocks PTAP/TSG101 interaction to inhibit HIV-1 budding; 340,000 tested, under 10 active; Potency, µM (top dose mostly 115 µM), most hits filed as inhibitors; Fluorescence polarization, FITC-PTAP peptide / Tsg101 binding; Q99816; active means well fitted inhibition curve with a large enough effect in the main read-out, with a control signal flat, not every such curve was filed as active; inconclusive means small, poorly fitted or top-dose-only effect, or effect the other way, or a change in a side signal; inactive means no such curve, though single readings can be large or run the other way
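Tsg101 binding domain (10 uM final) was mixed with compound and a FITC-labeled PTAP peptide (50 nM final) in HEPES pH 7.5 buffer with NaCl, Tween 20, EDTA and TCEP; fluorescence polarization was read after 20 min at r.t.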
GRP78 ERSR act: ER stress response induction in glioma; U87-MG GRP78 promoter luciferase reporter, 16 h; Potency, µM, usual class: activators; 420,000 compounds, 0.02% hits; further: series mostly up to about 76 µM; nearly all actives have a fitted effect of over 35% in size
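Stably transfected U87-MG human glioma cells carrying a GRP78-based luminescent sensor were seeded at 1000 cells/well, pin-dosed with compounds and incubated 16 h. Luciferase reagent was then added, and end-point luminescence was read after 10 min at room temperature.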
miR-21 reporter: miR-21 reporter, rising signal. HeLa miR-21 FLuc reporter, luciferase, 48 h. Potency, µM (highest dose often 38.3 µM). 340,000 tested, under 10 active. AID 2288; active = well fitted rising curve with a large enough effect; inconclusive = small, poorly fitted or top-dose-only effect; inactive = no such curve, though single readings can be large or run the other way;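 further: miR-21 action dims this reporter so a rising signal means less miR-21 action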
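HeLa cells endogenously expressing miR-21, stably carrying CMV-driven firefly luciferase with a downstream miR-21 binding site, 2000 cells/well. Titrations up to approximately 40 uM, 48 hours; luciferase luminescence read.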
Nrf2 inh: inhibitors of Nrf2 signaling. A549 ARE-Fluc reporter, luciferase luminescence, 18-24 h. Potency, µM (titrated, usually from 46 µM), actives largely listed as inhibitors. 360,000 compounds, 2.1% hits. AID 504444; further: nearly all actives have a fitted effect of over 60% in size
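Two sequential reads on A549 ARE_Fluc cells exposed to compound for 18-24 h: a CellTiter-Fluor fluorescence read for viability, then a luciferase luminescence read for Nrf2/ARE activity.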
Nrf2 ARE act: activates Nrf2 signaling; AREc32 ARE-luciferase reporter (MCF7-derived line), luminescence, 24 h; Potency, µM (highest dose often 46.1 µM), most hits filed as activators; 410,000 compounds, 0.31% hits; AID 624171; further: nearly all actives have a fitted effect of over 65% in size
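Quantitative high-throughput format: AREc32 reporter cells, 1000 per well, received compound by pin transfer and were incubated 24 hr at 37 deg C, 5% CO2, before Steady-Glo luminescence detection.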
Numbers stand for hits; . = inactive; ? = inconclusive; / = no result given. Sampled rows, rich in hits. Any-hit rate of the full collection: about 2.1%. Unless noted, the call rests on the fitted dose curve; in most records, active means well fitted curve in the direction sought with a large enough effect; inconclusive means small, poorly fitted or top-dose-only effect, or another doubt; inactive means no such curve, though single readings can be large; an effect the other way counts as inactive or inconclusive.

SMILES	A549 tox	TSG101-PTAP inh	GRP78 ERSR act	miR-21 reporter	Nrf2 inh	Nrf2 ARE act
CCOC(=O)Cc1c(Sc2ccccc2)c2ccccc2n1C	.	.	.	.	23µM	.
O=C(CCNc1ccc(Cl)c(C(F)(F)F)c1)c1ccco1	.	.	.	.	.	?
O=C(CCNc1cccc(C(F)(F)F)c1)c1ccco1	.	.	.	.	.	16µM
O=C1c2ccccc2S(=O)(=O)N1Cc1nc2ccccc2s1	.	.	.	?	13µM	.
CCC1CN(CCNC(=O)c2cccc(C(=O)OC)c2)Cc2cc(OC)ccc2O1 (configuration not stated)	/	/	.	/	/	/
COCCn1c(-c2cccs2)nc2nc3ccccc3nc21	.	.	.	.	.	.
CCCn1c(-c2cccs2)nc2nc3ccccc3nc21	.	.	.	.	.	4.5µM
C[C@@H](C(=O)O)c1ccc(C2CCCCC2)c2ccccc12	/	/	.	/	/	/
c1ccc2oc(CCc3nc4ccccc4o3)nc2c1	.	.	.	.	.	.
c1ccc2oc(Cc3ccc(Cc4nc5ccccc5o4)cc3)nc2c1	.	.	.	.	26µM	.
[2H]c1c([2H])c([2H])c2c([nH]c(=S)n2C2CCN(CCCC(=O)c3ccc(F)cc3)CC2)c1[2H]	/	/	.	/	/	/
O=S(=O)(O)OCC1OC(COS(=O)(=O)O)(C2(OS(=O)(=O)O)OC(CO)C(OS(=O)(=O)O)C(OS(=O)(=O)O)C2OS(=O)(=O)O)C(OS(=O)(=O)O)C1OS(=O)(=O)O (configuration not stated)	/	/	.	/	/	/
CCOC(=O)CN(C(=O)CN1CCC(n2nnc3cc(C)ccc32)CC1)c1ccccc1	.	.	.	.	.	.
Cc1ccc2c(c1)nnn2C1CCN(CC(=O)N(c2ccccc2)c2ccccc2)CC1	?	.	.	.	15µM	.
COc1cc(=O)n2c(c1C(=O)NCc1ccco1)CCN(C(=O)c1ccc(C)c(C)c1)CC2	/	/	.	/	/	/
Cn1nc(-c2ccccc2F)c2cc(C(=O)Nc3ccc4c(c3)OCCO4)sc21	?	.	.	.	15µM	.
COc1cccc(-c2nn(C)c3sc(C(=O)Nc4ccc5c(c4)OCCO5)cc23)c1	.	.	.	.	.	.
Cc1ccnc(OC(C(=O)O)C(OCc2ccccc2)(c2ccccc2)c2ccc(C(F)(F)F)cc2)n1 (configuration not stated)	.	.	.	.	10µM	.
CCS(=O)(=O)Nc1cc(C(=O)N2CCC[C@H]2CO)c2c(c1)nc(-c1ccccc1)n2C	/	/	.	/	/	/
COc1ccc(C2Nc3ccccc3C(=O)N2Cc2ccc(-c3ccccc3)cc2)cc1COc1ccc(NC(C)=O)cc1 (configuration not stated)	.	/	/	/	.	/
COc1ccc(/C=C2\CCCC3C2=NN(C(=O)COC(=O)CNC(=O)c2ccccc2)C3c2ccc(OC)cc2)cc1 (configuration not stated)	/	.	.	.	13µM	.
Brc1ccccc1OCCCCn1cnc2ccccc21	.	.	.	.	7.3µM	.
CCN(CC)c1ccc(C(=C2C=CC(=[N+](CC)CC)C=C2)c2ccc(N(CC)CC)cc2)cc1	7.3µM	.	.	/	5.8µM	.
CCC(C)C1OC2(C=CC1C)CC1CC(C/C=C(\C)C(OC3CC(OC)C(OC4CC(OC)C(NC(C)=O)C(C)O4)C(C)O3)C(C)/C=C/C=C3\COC4C(O)C(C)=CC(C(=O)O1)C34O)O2 (configuration not stated) (tested in a mixture with another compound)	/	/	.	/	/	/
CC(=O)c1c(C(C)=O)c(C)n(-c2nc(-c3ccc(C)c(C)c3)c(C)s2)c1C	.	.	.	.	13µM	.
SMILES	A549 tox	TSG101-PTAP inh	GRP78 ERSR act	miR-21 reporter	Nrf2 inh	Nrf2 ARE act
COc1ccc(-c2nc(-n3c(C)c(C(C)=O)c(C(C)=O)c3C)sc2C)cc1	/	.	.	.	?	.
COc1ccc(OCC(=O)N2CCN(c3nnc(-c4ccccc4)c4ccccc34)CC2)cc1	.	.	.	.	?	.
Cc1ccc(-c2nnc(N3CCCCCC3)c3ccccc23)cc1	?	.	.	.	23µM	.
Cc1ccc(OCC(=O)N2CCN(c3nnc(-c4ccc(C)cc4)c4ccccc34)CC2)cc1	?	.	.	.	18µM	.
O=C(COc1ccccc1)N1CCN(c2nnc(-c3ccccc3)c3ccccc23)CC1	?	.	.	.	21µM	.
COc1ccc(OCC(=O)N2CCN(c3nnc(-c4ccc(C)cc4)c4ccccc34)CC2)cc1	.	.	.	.	?	.
Cc1ncsc1CCOC(=O)c1ccc(N2CCOCC2)c([N+](=O)[O-])c1	.	.	.	.	.	.
Cc1c(CCOC(=O)c2ccc(N3CCOCC3)c([N+](=O)[O-])c2)sc[n+]1CC#N	?	.	.	.	16µM	.
Cc1ccc(C)c(-n2nnnc2SCC(=O)NCCC2=CCCCC2)c1	/	.	.	.	18µM	.
O=C1CC(c2ccccc2)CC2=C1C1(CCCCC1)N=C(Nc1nc3ccccc3o1)N2 (configuration not stated)	.	/	/	/	.	/
Cc1ccc(NC(=O)CSc2nc3ccccc3c3nc(CCc4c(C)n[nH]c4C)nn23)cc1F	?	.	.	.	13µM	.
CC(C)Nc1ncnc2c1cnn2Cc1ccccc1Cl	.	.	.	.	13µM	.
Cc1ccc(NS(=O)(=O)c2cc3c(cc2F)NC(=O)CC3)cc1Cl	.	/	/	/	?	/
COc1cc(CNC(=O)c2cnn(-c3ncc4c(n3)-c3ccccc3CC4)c2C)cc(OC)c1OC	/	/	.	/	/	/
O=S(=O)(c1cccs1)N1CCN(c2ccc(Cl)cc2)CC1	.	.	.	?	.	.
O=S(=O)(c1cccs1)N1CCN(CCOc2ccc(Cl)cc2)CC1	.	.	.	/	15µM	.
